Results taken from ChEMBL document CHEMBL2163257 (J Med Chem, 2012).
The source made the active and inactive calls. The rule behind the calls is not given here.

Protein sequences, listed by entry. Tags and fused reporters are not part of them. Lines headed by an entry give the natural chain unless they say otherwise; changes in a name come on top.
UniProt P47747, whole entry: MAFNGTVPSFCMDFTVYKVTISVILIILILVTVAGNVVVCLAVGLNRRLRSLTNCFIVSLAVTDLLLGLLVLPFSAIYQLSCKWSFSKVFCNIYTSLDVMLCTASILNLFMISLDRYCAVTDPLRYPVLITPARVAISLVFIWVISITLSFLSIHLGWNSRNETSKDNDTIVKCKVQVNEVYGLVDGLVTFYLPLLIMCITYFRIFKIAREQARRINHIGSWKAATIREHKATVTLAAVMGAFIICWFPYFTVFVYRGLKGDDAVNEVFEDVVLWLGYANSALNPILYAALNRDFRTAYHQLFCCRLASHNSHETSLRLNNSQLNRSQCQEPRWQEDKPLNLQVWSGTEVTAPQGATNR
UniProt Q9Y5N1: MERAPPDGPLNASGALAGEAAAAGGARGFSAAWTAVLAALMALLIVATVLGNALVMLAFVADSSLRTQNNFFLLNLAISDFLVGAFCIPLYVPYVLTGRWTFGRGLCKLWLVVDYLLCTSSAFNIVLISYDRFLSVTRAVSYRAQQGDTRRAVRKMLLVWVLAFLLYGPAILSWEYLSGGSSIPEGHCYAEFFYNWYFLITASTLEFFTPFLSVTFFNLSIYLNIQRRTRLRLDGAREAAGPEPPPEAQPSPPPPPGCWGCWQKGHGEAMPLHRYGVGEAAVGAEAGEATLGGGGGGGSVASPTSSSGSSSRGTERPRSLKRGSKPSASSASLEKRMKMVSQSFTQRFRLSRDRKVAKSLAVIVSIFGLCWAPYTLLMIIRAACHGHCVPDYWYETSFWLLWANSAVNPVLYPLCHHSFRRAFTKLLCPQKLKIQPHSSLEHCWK
UniProt P35367, whole entry: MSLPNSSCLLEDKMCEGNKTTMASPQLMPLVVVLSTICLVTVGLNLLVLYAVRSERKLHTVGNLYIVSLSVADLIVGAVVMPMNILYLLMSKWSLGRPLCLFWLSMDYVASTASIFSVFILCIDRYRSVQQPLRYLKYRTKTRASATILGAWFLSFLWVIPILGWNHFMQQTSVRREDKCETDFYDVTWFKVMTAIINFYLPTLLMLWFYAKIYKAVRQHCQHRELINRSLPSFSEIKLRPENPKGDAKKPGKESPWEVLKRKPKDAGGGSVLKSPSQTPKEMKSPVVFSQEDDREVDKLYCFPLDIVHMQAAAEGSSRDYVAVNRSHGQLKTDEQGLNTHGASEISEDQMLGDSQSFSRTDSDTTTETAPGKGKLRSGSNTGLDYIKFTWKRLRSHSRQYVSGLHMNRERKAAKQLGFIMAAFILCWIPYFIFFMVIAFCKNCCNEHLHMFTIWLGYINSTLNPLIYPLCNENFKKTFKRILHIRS
UniProt P25021, whole entry: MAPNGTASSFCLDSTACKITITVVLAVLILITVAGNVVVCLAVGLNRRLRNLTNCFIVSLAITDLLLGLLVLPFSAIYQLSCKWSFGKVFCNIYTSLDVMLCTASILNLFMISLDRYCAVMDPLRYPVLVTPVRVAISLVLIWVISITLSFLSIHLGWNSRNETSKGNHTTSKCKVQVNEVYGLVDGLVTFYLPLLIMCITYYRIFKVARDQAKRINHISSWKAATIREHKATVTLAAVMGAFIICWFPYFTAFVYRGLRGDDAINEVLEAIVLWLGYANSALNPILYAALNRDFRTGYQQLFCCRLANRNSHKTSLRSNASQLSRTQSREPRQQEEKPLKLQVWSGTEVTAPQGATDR

What was measured:
Histamine H2 receptor [1] = biological target: Histamine H2 receptor (Cavia porcellus, UniProt P47747); test: Agonist activity at guinea pig H2R-Gsalphas expressed in Sf9 cells at 0.1 nM to 10 uM by steady state GTPase activity assay; type: functional
Outline: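 Steady-state GTPase assay with Sf9 membranes (5–20 µg protein) expressing hH2R- or gpH2R-Gsαs, in 50 mM Tris-HCl pH 7.4. Mix: 1.0 mM MgCl2, 100 µM EDTA, 100 nM GTP, 100 µM AppNHp, 5 mM creatine phosphate, creatine kinase, 0.2% BSA, ligand 0.1 nM–10 µM. After 2 min at 25 °C, [γ-32P]GTP or [γ-33P]GTP was added and reacted 20 min at 25 °C. Charcoal stop; released Pi counted. Two to six experiments, duplicate.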

Histamine H3 receptor = Histamine H3 receptor (Homo sapiens, UniProt Q9Y5N1); details: Sf9
[2] = biological target: Histamine H1 receptor (Homo sapiens) (UniProt P35367); test: Antagonist activity at human H1R-RGS4 expressed in Sf9 cells by steady state GTPase activity assay; type: functional
Outline: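 Sf9 membranes (5–20 μg protein) co-expressing human H1R with RGS4. Reaction with 1.0 mM MgCl2, 100 μM ATP, 100 nM GTP, AppNHp, creatine phosphate/kinase, 0.2% BSA, 50 mM Tris-HCl pH 7.4. Histamine 100 nM with test ligand 10 nM–1 mM. [γ-32P/33P]GTP added, 20 min at 25 °C. Charcoal stop, released Pi counted. pKB from sigmoidal nonlinear fits.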

Histamine H2 receptor [3] = biological target: T1, Histamine H2 receptor (Homo sapiens, UniProt P25021); details: Sf9
[4] = biological target: Histamine H2 receptor (Cavia porcellus) (UniProt P47747); test: Potency index, ratio of pEC50 for compound to pEC50 for histamine at guinea pig H2R-Gsalphas expressed in Sf9 cells at 0.1 nM to 10 uM by steady state GTPase activity assay
Outline: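 Sf9 membranes expressing human or guinea pig H2R-Gsαs fusion protein, 1.0 mM MgCl2, ATP, 100 nM GTP, AppNHp, creatine phosphate/kinase, BSA, Tris pH 7.4. Agonists 0.1 nM–10 μM, [γ-32P/33P]GTP hydrolysis 20 min at 25 °C, Pi counted. Curves fit by sigmoidal nonlinear regression. Potency given relative to histamine (set to 1.0). Two to six independent experiments in duplicate.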

Histamine H2 receptor [5] = biological target: T1, Histamine H2 receptor; details: Sf9, 0.1 nM

SMILES | pKb (Histamine H3 receptor) | pKb [2] | further results
Cc1nc(N)sc1CCCNC(=N)NC(=O)CCCCCCCCCCCCCCC(=O)NC(=N)NCCCc1sc(N)nc1C |  |  | EC50 (Histamine H2 receptor [1]): 0.0347 µM
N/C(=N\C(=O)CCCCCCCCC(=O)/N=C(\N)NCCCc1c[nH]cn1)NCCCc1c[nH]cn1 |  | 6.32 | 
N/C(=N\C(=O)CCCCCCC(=O)/N=C(\N)NCCCc1cnc(N)s1)NCCCc1cnc(N)s1 | 6.36 | < 6 | 
N=C(NCCCc1cnc[nH]1)NC(=O)CCCCCCCCCCCCCCCCCCCCC(=O)NC(N)=NCCCc1cnc[nH]1 |  |  | EC50 (Histamine H2 receptor [1]): 0.0347 µM
N/C(=N\C(=O)CCCCC(=O)/N=C(\N)NCCCc1c[nH]cn1)NCCCc1c[nH]cn1 |  | 6.13 | 
N/C(=N\C(=O)CCCCCCCCCCCCCCC(=O)/N=C(\N)NCCCc1c[nH]cn1)NCCCc1c[nH]cn1 |  | < 6 | 
N/C(=N\C(=O)CCCCCCCCC(=O)/N=C(\N)NCCCc1cnc(N)s1)NCCCc1cnc(N)s1 | < 5 | < 6 | 
Cc1nc(N)sc1CCCN=C(N)NC(=O)CCCCCCCCC(=O)NC(N)=NCCCc1cnc(N)s1 |  |  | EC50 (Histamine H2 receptor [1]): 0.00347 µM
N/C(=N\C(=O)CCCCCCCCCCCCCCCCCCCCC(=O)/N=C(\N)NCCCc1cnc(N)s1)NCCCc1cnc(N)s1 |  |  | pKb (Histamine H2 receptor [3]): 5.77; pEC50 (Histamine H2 receptor [5]): inactive
Cc1nc(N)sc1CCCN/C(N)=N/C(=O)CCCCCCCCCCCCCCCCCCCCC(=O)/N=C(\N)NCCCc1sc(N)nc1C |  |  | pKb (Histamine H2 receptor [3]): 6.11; pEC50 (Histamine H2 receptor [5]): inactive

Further lines, with some results ahead:

pKb (Histamine H3 receptor) | pKb [2] | SMILES | further results
< 5 | < 6 | Cc1nc(N)sc1CCCN/C(N)=N/C(=O)CCCCCCC(=O)/N=C(\N)NCCCc1sc(N)nc1C | 
 | < 6 | N/C(=N\C(=O)CCCCCCCCCCCCCCCCCCCCC(=O)/N=C(\N)NCCCc1c[nH]cn1)NCCCc1c[nH]cn1 | pKb (Histamine H2 receptor [3]): 6.57; Ratio [4]: 34.7; pEC50 (Histamine H2 receptor [5]): inactive
< 5 | 6.01 | Cc1nc(N)sc1CCCN/C(N)=N/C(=O)CCCCCCCCC(=O)/N=C(\N)NCCCc1sc(N)nc1C | 
< 6 | < 6 | Cc1nc(N)sc1CCCN/C(N)=N/C(=O)CCCCCCCCCCCCCCC(=O)/N=C(\N)NCCCc1sc(N)nc1C | 
 | 6.27 | Cc1nc(N)sc1CCCN/C(N)=N/C(=O)CCCCCCCCC(=O)/N=C(\N)NCCCc1c[nH]cn1 | 
< 5 | < 6 | Cc1nc(N)sc1CCCN/C(N)=N/C(=O)CCCCC(=O)/N=C(\N)NCCCc1sc(N)nc1C | 
< 5 | < 6 | Cc1nc(N)sc1CCCN/C(N)=N/C(=O)CCCCCCCCC(=O)/N=C(\N)NCCCc1cnc(N)s1 | 
